logP (octanol/water) values, as collected for the OPERA models

The octanol-water partition coefficient is given as log10; larger values mean a more lipophilic compound. "n/a" marks a cell with nothing listed here. The databases behind each value are named after "via".

SMILES	name	log Kow	via
CCCCOCCCN	1-Propanamine, 3-butoxy-	1.05	eChemPortal
CC(=O)OCN1C(=O)C2CC=CCC2C1=O (stereo not drawn)	n/a	0.97	OCHEM
C=C[C@]1(C)C[C@@H](OC(=O)CO)[C@]2(C)[C@H](C)CC[C@]3(CCC(=O)[C@H]32)[C@@H](C)[C@@H]1O	Pleuromutilin	1.36	eChemPortal
CCCCN(c1nc(N(CCCC)C2CC(C)(C)NC(C)(C)C2)nc(N(CCCCCCN(c2nc(N(CCCC)C3CC(C)(C)NC(C)(C)C3)nc(N(CCCC)C3CC(C)(C)NC(C)(C)C3)n2)C2CC(C)(C)NC(C)(C)C2)C2CC(C)(C)NC(C)(C)C2)n1)C1CC(C)(C)NC(C)(C)C1	n/a	5.5	eChemPortal
CC(=O)NCC(=O)NCCC(=O)O	N-Acetylglycyl-beta-alanine	-1.72	eChemPortal
CCOc1ccc(C)cc1/N=N/c1ccc(/N=N/c2cccc(S(=O)(=O)[O-])c2)c2ccccc12.[Na+]	C.I. Acid Orange 116	1.586	eChemPortal
COc1cc2c(cc1OC)C(C#N)C2 (stereo not drawn)	n/a	1.22	eChemPortal
COc1ccc(C(=O)CC(=O)c2ccc(C(C)(C)C)cc2)cc1	1-(4-tert-Butylphenyl)-3-(4-methoxyphenyl)propane-1,3-dione	6.1	eChemPortal
Cc1ccc(C)c(OCCCC(C)(C)C(=O)O)c1	Gemfibrozil	3.4	PubChem
CC(c1ccccc1)c1ccc(O)cc1O (stereo not drawn)	4-(1-Phenylethyl)benzene-1,3-diol	2.11	eChemPortal
Cc1cccc(Oc2ccccc2)c1	1-Methyl-3-phenoxybenzene	4.46	OCHEM
C[N+](C)(CCO)CC(O)C[N+](C)(C)CCO.[Cl-].[Cl-]	n/a	-2.29	eChemPortal
CC1=NN(c2cccc(S(=O)(=O)[O-])c2)C(=O)C1/N=N/c1cc(Cl)c(C)cc1S(=O)(=O)[O-].[Ca+2] (stereo partly drawn)	C.I. Pigment Yellow 191	0.2	eChemPortal
CC1(C)COP(=O)(NCCNP2(=O)OCC(C)(C)CO2)OC1	n/a	1	eChemPortal
CCCCCCCC[N+](C)(C)CCCCCCCC.[Cl-]	Dioctyldimethylammonium chloride	1.2	eChemPortal
CCCCc1ccc(O)cc1O	4-Butylresorcinol	2.8	eChemPortal
CC(=O)c1ccc(Oc2ccc(Cl)cc2)cc1C(F)(F)F	n/a	4.1	eChemPortal
CC(C)(O)c1cccc(C(C)(C)O)c1	n/a	1.6	eChemPortal
O=S(=O)([O-])CCCSSCCCS(=O)(=O)[O-].[Na+].[Na+]	1-Propanesulfonic acid, 3,3'-dithiobis-, sodium salt (1:2)	-3.68	eChemPortal
CC(C)COC(=O)c1cc(=O)[nH]c(=O)[nH]1	n/a	1.01	OCHEM
O=C([C@@H]1COc2ccccc2O1)N1CC[NH2+]CC1	4-(2,3-Dihydro-1,4-benzodioxine-2-carbonyl)piperazin-1-ium	0.103	eChemPortal
CCCCNC(=O)CC[C@H](NC(=O)C(CC)CCCC)C(=O)NCCCC (some centres undefined)	Dibutyl ethylhexanoyl glutamide	2.51	eChemPortal
Nc1n[nH]c(-c2ccnc(NCCCc3ccccc3)c2)n1	n/a	3.05	OCHEM
O=C(O)c1ccc(/N=N/c2c(O)ccc3cc(S(=O)(=O)[O-])ccc23)cc1.O=C(O)c1ccc(/N=N/c2c(O)ccc3cc(S(=O)(=O)[O-])ccc23)cc1.[Sr+2]	C.I. Pigment Orange 79	-1.37	eChemPortal
CC(C)(C)c1cc2c(c(C(C)(C)C)c1)OP(=O)(O)Oc1c(cc(C(C)(C)C)cc1C(C)(C)C)C2	n/a	2.97	eChemPortal
CCOCC(C)OCC (stereo not drawn)	1,2-Diethoxypropane	1.1	eChemPortal
CNC(=O)c1cc(Cl)ccn1.Cl	n/a	1.3	eChemPortal
COc1ccccc1N1CCN(CCNC(=O)c2ccco2)CC1	n/a	1.6	OCHEM
CCn1nc(C(=O)O)c(=O)c2cc3c(cc21)OCO3	Cinoxacin	1.5	PubChem
CCOC(=O)[C@H](CCc1ccccc1)N[C@@H](C)C(=O)N1[C@H](C(=O)O)C[C@H]2CCCC[C@@H]21	Trandolapril	3.5	PubChem
Cc1ccc(C(C)(C)C)c(O)c1C(C)(C)C	Phenol, 2,6-bis(1,1-dimethylethyl)methyl-	5.1	OCHEM
O=C1CCC(O)C2C3CCC(C3=C(Cl)Cl)C12 (stereo not drawn)	n/a	2.6	eChemPortal
CCCCCCC(=O)OCCOCCOCCOCCOC(=O)CCCCCC	Tetraethylene glycol diheptanoate	2.86	OFMPub
C[C@]12C=CC(=O)C=C1CC[C@H]1[C@@H]3CC[C@](O)(C(=O)CO)[C@@]3(C)C[C@H](O)[C@@]12F	Isoflupredone	1.51	OCHEM
C=Cc1ccccc1C=C	1,2-Divinylbenzene	5.43	OCHEM
CCN(CC)c1ccc(N=Nc2c(C#N)cc([N+](=O)[O-])cc2C#N)c(NC(C)=O)c1	n/a	4.9	eChemPortal
CC(C)CCC1CCC(O)CC1 (stereo not drawn)	Cyclohexanol, 4-(3-methylbutyl)-	4.49	eChemPortal
COC(=O)Oc1ccc(C)cc1OC	Carbonic acid, 2-methoxy-4-methylphenyl methyl ester	2.27	eChemPortal
CC1=CC(=O)N(Cc2cccc(CN3C(=O)C=C(C)C3=O)c2)C1=O	n/a	2.22	eChemPortal
CCCCCC(O)CC (stereo not drawn)	3-Octanol	2.645	eChemPortal
Cc1ccc(S(=O)(=O)Nc2ccc(Nc3ccccc3)cc2)cc1	Benzenesulfonamide, 4-methyl-N-[4-(phenylamino)phenyl]-	2.58	eChemPortal
CCCCCCCCCCCCCCCCCCN(CCO)CCCN(CCO)CCO.F.F	n/a	1.94	eChemPortal
NC(=O)C1=CN([C@@H]2O[C@H](CO[P@@](=O)([O-])O[P@@](=O)([O-])OC[C@H]3O[C@@H](n4cnc5c(N)ncnc54)C(O)C3O)C(O)C2O)C=CC1.[Na+].[Na+] (some centres undefined)	Dihydronicotinamide-adenine dinucleotide, disodium salt	-1.96	eChemPortal
O=S(=O)([O-])c1cccc(/N=N/c2ccc(/N=N/c3ccc(Nc4ccccc4)c4c(S(=O)(=O)[O-])cccc34)c3ccccc23)c1.[Na+].[Na+]	C.I. Acid Blue 113	-1.16	eChemPortal
C=CCN(C)CC=C	N-Methyldiallylamine	1.28	eChemPortal
CCOC(=O)C1=NN(c2ccccc2)C(=O)C1	Ethyl 5-oxo-1-phenyl-4,5-dihydro-1H-pyrazole-3-carboxylate	2	eChemPortal

The first 6 entries again:

SMILES	name	log Kow	via
CCCCOCCCN	1-Propanamine, 3-butoxy-	1.05	eChemPortal
CC(=O)OCN1C(=O)C2CC=CCC2C1=O (stereo not drawn)	n/a	0.97	OCHEM
C=C[C@]1(C)C[C@@H](OC(=O)CO)[C@]2(C)[C@H](C)CC[C@]3(CCC(=O)[C@H]32)[C@@H](C)[C@@H]1O	Pleuromutilin	1.36	eChemPortal
CCCCN(c1nc(N(CCCC)C2CC(C)(C)NC(C)(C)C2)nc(N(CCCCCCN(c2nc(N(CCCC)C3CC(C)(C)NC(C)(C)C3)nc(N(CCCC)C3CC(C)(C)NC(C)(C)C3)n2)C2CC(C)(C)NC(C)(C)C2)C2CC(C)(C)NC(C)(C)C2)n1)C1CC(C)(C)NC(C)(C)C1	n/a	5.5	eChemPortal
CC(=O)NCC(=O)NCCC(=O)O	N-Acetylglycyl-beta-alanine	-1.72	eChemPortal
CCOc1ccc(C)cc1/N=N/c1ccc(/N=N/c2cccc(S(=O)(=O)[O-])c2)c2ccccc12.[Na+]	C.I. Acid Orange 116	1.586	eChemPortal

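These are experimental values that the OPERA curators gathered from public databases to train and test their QSAR models. One number stands for a compound and property, with no spread given. Method and conditions are not stated for these values. Where a salt, mixture or single isomer is drawn, the source does not say that exactly this form was tested. Some entries may be limits or estimates that an upstream database listed as plain numbers.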

Values as listed in the OPERA 2.9 repository of K. Mansouri.